Experimental data from patent publication US20100105877A1.

target: GLP-1 receptor on RIN-m5F rat insulinoma cells (Rat) (UniProt P32301); test: cell-based or functional assay

Substance | In vitro titer (%): cAMP EC50 in RIN-m5F cells, relative to exendin-4
Exendin-4(N)-PEG-Fc | < 0.2%
HY exendin-4(Lys27)-PEG-Fc | 7.6%
CA exendin-4(Lys27)-PEG-Fc | 8.5%
DA exendin-4(Lys27)-PEG-albumin (from UniProt P02768) | 2%
DM exendin-4(Lys27)-PEG-Fc | 2.6%
Exendin-4(Lys27)-PEG-Fc | 13.2%
DA exendin-4(Lys27)-PEG-Fc | 13.2%
